Target: TNFalpha (UniProt P01375)
Assay: cell-based or functional assay

The chains behind the UniProt entries cited, without tags or fusion partners. Residues count along the entry.
UniProt P01375, 77-233 limits assumed: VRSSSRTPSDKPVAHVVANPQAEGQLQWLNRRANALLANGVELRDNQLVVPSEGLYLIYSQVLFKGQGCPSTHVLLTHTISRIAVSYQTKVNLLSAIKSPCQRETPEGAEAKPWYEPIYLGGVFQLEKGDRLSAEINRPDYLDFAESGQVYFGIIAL

Substance “anti-TNFalpha antibody molecule infliximab” has a 3H-thymidine uptake (cpm), PBMC + HUVEC + CD105×CD3, on target activation (FIG. 4A) of 80000 cpm and a 3H-thymidine uptake (cpm), PBMC + HUVEC + PSMA×CD3, off target activation (FIG. 3A; control about 30000 cpm) of 20000 cpm.
